Apparent affinities of Ab-14 variants for a coronavirus HR2 peptide

Target: peptide PDVDLGDISGINAS, taken from heptad repeat 2 (HR2) of SARS-CoV-2 spike.

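The starting antibody came from a phage panning campaign against this peptide. These sequences belong to a second round, designed from the earlier measurements on random variants of the parent. Group labels follow the data file (Ctrl: baseline library sampled from a position-specific scoring matrix, with some repeated check sequences; Rand: our label for a block that the file lists under HC and that is probably the random mutants of the ten best first-round binders; En: ensemble of fine-tuned language models; GP: Gaussian process model; HC: hill climbing; Gen: genetic algorithm; Gibbs: Gibbs sampling; a sequence that several methods proposed may carry one label only). In AlphaSeq, yeast of one mating type display the scFv and yeast of the other type display the target. After mating in shaken culture at 30 °C for 16 h, diploids were selected and their barcode pairs sequenced. A regression on co-assayed BCL2-family reference pairs converts the normalised counts of each replicate to an apparent Kd. The assay was run in six technical replicates.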

Parent scFv Ab-14: VH joined to VL by a (GGGGS)3 linker. Changes lie in the light chain CDRs alone.
VH: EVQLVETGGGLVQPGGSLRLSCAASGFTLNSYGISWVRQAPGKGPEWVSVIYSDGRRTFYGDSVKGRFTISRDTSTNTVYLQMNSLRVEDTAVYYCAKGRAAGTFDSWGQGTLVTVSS
VL: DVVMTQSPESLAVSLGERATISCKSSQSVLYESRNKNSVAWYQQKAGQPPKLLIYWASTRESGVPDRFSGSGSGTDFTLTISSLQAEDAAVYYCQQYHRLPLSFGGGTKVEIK

The parent's light chain CDRs are KSSQSVLYESRNKNSVA, WASTRES, QQYHRLPLS; each variant's own CDRs replace them letter for letter. Each Kd is an estimate from the mating assay, the geometric mean of the replicates in which the pair was seen; lower is stronger. A pair that was not seen in any replicate is written "nd"; this usually means weak binding, but a binder can also be missed. Values of this round are not directly comparable with the first-round values of the same sequences.

Kd (apparent) | seen in | empty controls | CDR-L1 | CDR-L2 | CDR-L3 | group
14 nM | 2 of 6 | 0 of 18 | KSSVSVLYESQNKNSVA | WASVRES | QQYHRLPLS | Ctrl
34 nM | 6 of 6 | 1 of 18 | KVPQSVLYESVNKHSVA | WASTRES | QQYHRLPLS | Ctrl
430 pM | 6 of 6 | 0 of 18 | KVMQSQLYESRNKNSVA | NASQRES | QQYHRLPLS | GP_Gen
nd | 0 of 6 | 0 of 18 | TISELYNQALGMRNSVA | NNQTRED | QQYDRLPLS | En_Gen
1.2 nM | 6 of 6 | 1 of 18 | KLQLSMPYESRMKNSVA | QASVRES | QQYHRLPLS | GP_Gibbs
52 nM | 6 of 6 | 2 of 18 | KLTWSQYNWTSNYQAVA | EQNMRAT | QSYYRLPFS | En_Gibbs
nd | 0 of 6 | 2 of 18 | KLSQSVRMEQFNKDNVA | ENSTREA | QDYHRLPLS | En_HC
1.8 nM | 6 of 6 | 0 of 18 | KSPQSVLGMDMMKNSVA | QASQRES | QQYHRLPLS | GP_Gibbs
8.4 nM | 6 of 6 | 2 of 18 | KSSQGVLYESRNKNSVA | GASQRWS | QQYHRLPLS | GP_HC
1.4 nM | 6 of 6 | 0 of 18 | KLMQSTPYESRNANNVA | YASTRES | QQYHRLPLS | GP_Gibbs
15 nM | 6 of 6 | 0 of 18 | MLSQMWAIGMKVSNSVA | QASTRFE | QQYERLPFI | En_Gen
810 pM | 6 of 6 | 0 of 18 | KSSQSWLYESMNKNSVA | GASTREV | QQYHRLPLS | GP_HC
2.9 nM | 6 of 6 | 2 of 18 | KSSPSGLYESRMKNSVA | EASTRES | QQYHRLPLS | GP_HC
390 nM | 6 of 6 | 1 of 18 | KLIQSVAMVSRNKDSIA | DNSTRFY | QQYHRLPLS | En_HC
93 nM | 3 of 6 | 0 of 18 | MISQSVLYESRNKNSVA | WASTRES | QQYHRLPIS | Ctrl
6.9 nM | 6 of 6 | 0 of 18 | KVSNSVLYESPNKNSVA | WASTRES | QQYHRLPLS | Ctrl
1.7 µM | 3 of 6 | 0 of 18 | KLSMSVRMETFVKDNVA | ENSTRED | QDYHRLPLS | En_HC
nd | 0 of 6 | 0 of 18 | KSSQSVRYESGNKRSVA | WASWRES | QQYGRLPLS | Ctrl
3.2 nM | 6 of 6 | 0 of 18 | KGSQSVLYESRNKNSVA | EASTRES | QQYHILPLS | Ctrl
3.2 nM | 6 of 6 | 2 of 18 | MFSQLFMYGSRNYNSVA | QASTREE | QQYDRLPLI | En_HC
2.9 nM | 6 of 6 | 0 of 18 | ALSMSEWMESRNKNSVA | HANTREE | QQYHRLPLS | GP_Gibbs
4.3 nM | 6 of 6 | 1 of 18 | NMKVGLNFEDIQHQAIA | SVDERES | QQYMRLPLT | En_Gibbs
690 pM | 6 of 6 | 1 of 18 | KFEMSVPYEQRNKNSVA | HASVRES | QQYHRLPLS | GP_Gibbs
11 nM | 6 of 6 | 0 of 18 | TLYGLTNSMSKNKDNVA | EMSTREL | QQYDRLPLI | En_Gen
980 pM | 6 of 6 | 2 of 18 | KLVMSELYESRQKNSVA | GASQRES | QQYHRLPLS | GP_Gibbs
5.0 µM | 2 of 6 | 2 of 18 | HISQSVGMTAFNKNSVA | ENSTREN | QQYDRLPLS | En_HC
1.8 nM | 6 of 6 | 0 of 18 | KLGMSVDYMSATHSSVA | QTSTREE | QQYHRLPLS | En_HC
820 pM | 6 of 6 | 0 of 18 | KVEQSNPYESRNAQSVA | NASQRES | QQYHRLPLS | GP_Gibbs
8.7 nM | 6 of 6 | 4 of 18 | HMSALTMLGMHQRNSVA | QMTTREN | QQYDRLPLA | En_Gen
1.6 nM | 6 of 6 | 1 of 18 | KQSQSVLYEWRDKNSVA | DASTRES | QQYHRLPLS | GP_HC
40 nM | 6 of 6 | 2 of 18 | MLGGNLMHEMMKKNNVA | HMTTRVE | QQYHRLPLI | En_Gen
4.3 nM | 6 of 6 | 1 of 18 | KFSQWVLYESRVKNSVA | NASTRES | QQYHRLPLS | GP_HC
12 nM | 1 of 6 | 0 of 18 | KSSNSDLAESTNKNPVA | WASTRES | QQYHRLPLS | Ctrl
1.1 nM | 6 of 6 | 2 of 18 | KMSQSVLYESRNKNSVA | SASTRES | QQYHRLPLS | Ctrl
1.7 nM | 6 of 6 | 0 of 18 | KVWFSELGLERNKMSVA | QASTRES | QQYHRLPLS | GP_Gibbs
1.5 nM | 6 of 6 | 0 of 18 | KYSQQELYESINLNSVA | NASTRES | QQYHRLPLS | Ctrl
2.7 nM | 6 of 6 | 0 of 18 | KLSQSWLYESRNKNSVA | GASTRLS | QQYHRLPLS | GP_Gen
930 pM | 6 of 6 | 0 of 18 | KLSQSVLYESRNKNSVA | NASQREC | QQYHRLPLS | GP_Gen
6.4 nM | 6 of 6 | 0 of 18 | KFKQLFNMWARNHGNVA | DADERNV | QQYSRLPIS | En_Gibbs
420 nM | 5 of 6 | 0 of 18 | KSSQSVLYESRNKNSVA | WASTRES | QQYDRLPLS | Ctrl
950 pM | 6 of 6 | 0 of 18 | TISQSWLIESRNKNNVA | EMTTREN | QDYDRLPLS | En_HC
4.1 nM | 6 of 6 | 1 of 18 | NLSYRQGEPTGMVNSVA | QTSLRAH | QQYAHLPLC | En_Gibbs
19 nM | 6 of 6 | 0 of 18 | HMSMLTLSGMYHRNSVA | QMTTREN | QQYDRLPLS | En_Gen
3.1 nM | 6 of 6 | 0 of 18 | KSSGSYLYESRNKNSVA | EASTRES | QQYHRMPLS | GP_HC
7.4 nM | 6 of 6 | 0 of 18 | TIGMFLDNVSQNRNNVA | DTSTLGS | QSYDRLPLS | En_Gen
1.3 nM | 6 of 6 | 0 of 18 | TVSEVHGMLSHNKNSVA | DMNTRGS | QQYDRLPLS | En_HC
170 nM | 3 of 6 | 0 of 18 | TSSPVVLYESRNKNRVA | NASNRES | QQYHRLPLS | Rand
1.0 nM | 6 of 6 | 1 of 18 | KLMVSTMLESHNKNSIA | DLSTRGN | QQYHRLPLS | En_HC
6.6 nM | 6 of 6 | 0 of 18 | KISNMSTIESITHNSVA | QTSTRES | QQYDRLPLS | En_HC
6.0 nM | 6 of 6 | 0 of 18 | KFSQSVLYESRMKNSVA | NAVTRET | QQYHRLPLW | GP_HC
120 nM | 3 of 6 | 0 of 18 | KISQSVLYESRLKNSVA | WASTRES | QQQHRLPLS | Ctrl
470 nM | 6 of 6 | 1 of 18 | HLGLATMLEEYVRNSVA | NNSTREK | QQYDRLPLS | En_Gen
240 nM | 2 of 6 | 0 of 18 | KVSQSVLMEFRNKNSVA | WASTRPS | QQYHRLLLS | Ctrl

The closing 3 entries, repeated:

{"CDR-L1": "KISQSVLYESRLKNSVA", "CDR-L2": "WASTRES", "CDR-L3": "QQQHRLPLS", "group": "Ctrl", "Kd (apparent)": "120 nM", "seen in": "3 of 6", "empty controls": "0 of 18"}
{"CDR-L1": "HLGLATMLEEYVRNSVA", "CDR-L2": "NNSTREK", "CDR-L3": "QQYDRLPLS", "group": "En_Gen", "Kd (apparent)": "470 nM", "seen in": "6 of 6", "empty controls": "1 of 18"}
{"CDR-L1": "KVSQSVLMEFRNKNSVA", "CDR-L2": "WASTRPS", "CDR-L3": "QQYHRLLLS", "group": "Ctrl", "Kd (apparent)": "240 nM", "seen in": "2 of 6", "empty controls": "0 of 18"}

The authors' rule: three or more of the six replicates give a measured affinity, fewer mean a poor binder. Empty control strains, which show no peptide, gave a signal in 4% of pairings with all light chain designs; the median was 430 nM and 95% of these signals were weaker than 38 nM. No background was subtracted. The control count says in how many pairings with the empty strains this scFv gave a signal.

Values reported by Li et al. 2023, doi:10.1038/s41467-023-39022-2 (FLAb copy).